According to PMC2615049:

Target: Bovine cationic trypsin (bovine)
Assay: equilibrium titration with spectrophotometric assay of residual free trypsin

Kd: < 10 pM
Substance: Wild-type bovine pancreatic trypsin inhibitor (BPTI, aprotinin) (from UniProt P00974 36-93) (natural protein)
